This test deals with Carbonic anhydrase 1 (Homo sapiens, UniProt P00915).

By UniProt entry, the sequences of proteins in these tests, tags left out. Where a name states a change or a piece, a line headed by the entry shows the natural chain unless it says otherwise.
UniProt P00915: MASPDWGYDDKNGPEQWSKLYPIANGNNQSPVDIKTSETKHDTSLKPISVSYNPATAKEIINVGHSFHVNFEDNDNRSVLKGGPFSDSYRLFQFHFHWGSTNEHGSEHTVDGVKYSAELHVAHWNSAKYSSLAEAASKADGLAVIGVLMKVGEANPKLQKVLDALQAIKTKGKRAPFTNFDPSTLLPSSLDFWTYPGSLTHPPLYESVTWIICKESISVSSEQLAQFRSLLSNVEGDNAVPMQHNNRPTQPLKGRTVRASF

The compound `COc1cc(/C=C/C(=O)c2ccc(N)cc2)cc(OC)c1OC` registered a Ki of 5.13 nM. That is a single-digit nanomolar value.

Values taken from ChEMBL document CHEMBL5260848, “Recent advancements in the development of bioactive pyrazoline derivatives” (Eur J Med Chem, 2020).
